The target in this assay is Choline O-acetyltransferase (Homo sapiens, UniProt P28329). Put plainly: Inhibition of choline acetyltransferase (CAT) enzyme. The note with it: read-out: I50.

Chains of the proteins cited; added tags and fusions are not shown. Lines headed by an entry give the natural chain unless they say otherwise; changes in a name come on top.
UniProt P28329: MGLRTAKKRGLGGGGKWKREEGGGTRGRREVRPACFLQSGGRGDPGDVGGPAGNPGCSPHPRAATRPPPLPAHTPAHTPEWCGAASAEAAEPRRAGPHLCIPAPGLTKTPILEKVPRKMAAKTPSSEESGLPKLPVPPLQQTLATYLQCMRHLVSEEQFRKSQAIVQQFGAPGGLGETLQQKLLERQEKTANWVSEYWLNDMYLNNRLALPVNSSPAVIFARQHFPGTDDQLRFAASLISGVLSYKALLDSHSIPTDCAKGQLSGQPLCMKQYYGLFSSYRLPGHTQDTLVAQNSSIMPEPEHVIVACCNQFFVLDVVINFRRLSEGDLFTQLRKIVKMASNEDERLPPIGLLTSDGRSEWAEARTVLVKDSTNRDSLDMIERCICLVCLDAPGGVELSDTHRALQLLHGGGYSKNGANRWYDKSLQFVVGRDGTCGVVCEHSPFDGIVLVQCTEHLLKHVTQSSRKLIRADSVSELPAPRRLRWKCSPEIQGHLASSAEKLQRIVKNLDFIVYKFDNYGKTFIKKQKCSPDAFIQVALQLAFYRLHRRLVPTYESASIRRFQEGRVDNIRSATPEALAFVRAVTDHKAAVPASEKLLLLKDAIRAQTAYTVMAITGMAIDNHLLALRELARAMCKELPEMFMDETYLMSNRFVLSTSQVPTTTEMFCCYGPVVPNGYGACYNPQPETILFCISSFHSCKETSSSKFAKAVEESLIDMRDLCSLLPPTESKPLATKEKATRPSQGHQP

For the compound `C[n+]1ccc(C#Cc2cccc3ccccc23)cc1`, the IC50 was found to be 1.1 µM.

For `CC(=O)Nc1cc(/C=C/c2cccc3ccccc23)cc[n+]1C`, the IC50 came out at 3.7 µM.

`C[n+]1ccc(/C=C/c2ccccc2)cc1`: the IC50 was 12 µM.

For `C[n+]1ccccc1/C=C/c1cccc2ccccc12`, the IC50 stood at 2.2 µM.

As to `C[n+]1ccc(/C=C/c2ccc(Cl)c(Cl)c2)cc1`, the IC50 came out at 4.5 µM.

`C[n+]1ccc(/C=C/c2cccc3ccccc23)cc1`: the IC50 amounted to 0.3 µM.

`CCCCCC[n+]1ccc(/C=C/c2cccc3ccccc23)cc1`: the IC50 came to 4.2 µM.

In the case of `C[n+]1ccc(/C=C/c2cccc3ccccc23)cc1N`, the IC50 turned out to be 5.3 µM.

`CN1CC=C(/C=C/c2cccc3ccccc23)CC1`: the IC50 turned out to be 4.3 µM.

Turning to `COc1ccc(/C=C/c2cc[n+](CCO)cc2)c2ccccc12`, the IC50 was 90 µM.

Consider `OCC[n+]1ccc(/C=C/c2cccc3ccccc23)cc1`, for which the IC50 amounted to 3 µM.

The values are drawn from ChEMBL document CHEMBL1124268, “Approaches to protection against nerve agent poisoning. (Naphthylvinyl)pyridine derivatives as potential antidotes” (1988).
